This is a selection; strong and weak results do not stand in their true shares. Some salts or complexes appear as unconnected parts, following the source record. Active and inactive are the calls of the source.

The experiment in a line: blockers of Ca2+-induced mitochondrial swelling – biochemical, isolated mouse mitochondria, absorbance, primary screen (AID 602449).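 Note: 0% = DMSO wells given calcium and 100% = 1 mM EGTA wells.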 Conditions: 30 min, at 10 µM, stronger effect = higher value.
Broadly, the inhibition is the change of the read-out against control, counted positive when it falls. On to `COc1ccc(NP(C)(=O)Oc2ccccc2OC)cc1` (centres undefined), for which the inhibition was inactive: 0%.

`CN(C)CCOC(=O)C(O)(c1ccccc1)C1CCCCC1` (centres undefined): the inhibition is inactive: 44.5%.

Take `COc1ccc(OP(C)(=O)Nc2cccc(Br)c2)cc1` (centres undefined): the inhibition is inactive: 1.6%.

With `Cc1c(C(c2ccc3c(c2)OCO3)c2c(C)n(C)n(-c3ccccc3)c2=O)c(=O)n(-c2ccccc2)n1C.O=[N+]([O-])c1cc([N+](=O)[O-])c(O)c([N+](=O)[O-])c1`, the inhibition is inactive: 0.6%.

As for `O=[N+]([O-])c1cc([N+](=O)[O-])c(NCC2CCS(=O)(=O)C2)c([N+](=O)[O-])c1` (centres undefined), the inhibition is inactive: 1.2%.

For the compound `Cc1cc(-c2cccc3ccccc23)c(C)cn1.O=[N+]([O-])c1cc([N+](=O)[O-])c(O)c([N+](=O)[O-])c1`, the inhibition was inactive: 4.6%.

Consider `O=[N+]([O-])c1ccc(OP2(=O)COCCO2)cc1` (centres undefined), for which the inhibition is inactive: -0.2%.

Consider `CCOP(C)(=S)SCC(=O)NC(C)(CC)C(=O)O` (centres undefined), for which the inhibition is inactive: -1.3%.

For `CP(=O)(Nc1ccc(SC(F)(F)F)cc1)Oc1ccc(F)cc1` (centres undefined), the inhibition was inactive: 9.6%.

Take `O=[N+]([O-])c1cc([N+](=O)[O-])c(C(F)(F)F)c([N+](=O)[O-])c1O`: the inhibition was inactive: -1.8%.

With `Cc1ccccc1NP(C)(=O)Nc1ccccc1C`, the inhibition is inactive: -2.4%.

`CP(=O)(Nc1ccc2c(c1)OCCO2)Oc1ccccc1` (centres undefined): the inhibition is inactive: -4.2%.

Take `CC(C)c1ccc(OP(C)(=O)Nc2ccc(SC(F)(F)F)cc2)cc1` (centres undefined): the inhibition is inactive: 18.7%.

For `CP(=O)(Nc1ccccc1F)Oc1ccccc1` (centres undefined), the inhibition is inactive: -0.8%.

Consider `O=[N+]([O-])c1cc([N+](=O)[O-])c(Nc2ccc(Cl)cc2)c([N+](=O)[O-])c1`, for which the inhibition is active: 95.7%.

Regarding `COc1ccc2c(c1O)-c1c(O)c(OC)cc3c1[C@H](C2)[N+](C)(C)CC3.O=[N+]([O-])c1cc([N+](=O)[O-])c([O-])c([N+](=O)[O-])c1[O-]`, the inhibition was inactive: -0.4%.

As to `O=C(OCCN1CCN(CCOCc2ccccc2)CC1)C(O)(c1ccccc1)c1ccccc1`, the inhibition was inactive: 0.5%.

On to `O=C(OC1CN2CCC1CC2)c1ccc([N+](=O)[O-])cc1` (centres undefined), for which the inhibition was inactive: 0.6%.

Consider `COc1ccc(OP(C)(=O)Nc2ccc(SC(F)(F)F)cc2)cc1` (centres undefined), for which the inhibition is inactive: -0.9%.

Take `CCOC(=O)c1ccc(NP(C)(=O)Oc2ccc(F)cc2)cc1` (centres undefined): the inhibition was inactive: -0.5%.

Take `CCN(CC)CCCNc1ccccc1[N+](=O)[O-].O=[N+]([O-])c1cc([N+](=O)[O-])c(O)c([N+](=O)[O-])c1`: the inhibition was inactive: -2.3%.

Take `CCCCCOc1ccc(NP(C)(=O)Oc2ccc(Cl)cc2Cl)cc1` (centres undefined): the inhibition was inactive: 7%.

On to `O=[N+]([O-])c1cc([N+](=O)[O-])c(OC2CCCCC2O)c([N+](=O)[O-])c1` (centres undefined), for which the inhibition is inactive: 1.5%.

`CP(=O)(Nc1ccccc1)Oc1ccc(F)cc1` (centres undefined): the inhibition was inactive: -1.6%.

Regarding `CCN(CC)CCCOC(=O)C(O)(c1ccccc1)C1CCCCC1` (centres undefined), the inhibition was inactive: -0.9%.

Turning to `Cc1c([N+](=O)[O-])cc([N+](=O)[O-])c(Br)c1[N+](=O)[O-]`, the inhibition was inactive: -0.6%.

Take `COc1ccc(OP(C)(=O)Nc2ccccc2Br)cc1` (centres undefined): the inhibition is inactive: 3.8%.

With `COc1ccccc1OP(C)(=O)Nc1ccc(C)c(C)c1` (centres undefined), the inhibition is inactive: 1%.

Turning to `Cc1cc(C)cc(OP(C)(=O)Nc2cccc(C(F)(F)F)c2)c1` (centres undefined), the inhibition was inactive: -1.4%.

Turning to `O=C1C(O)=C([N+](=O)[O-])C(=O)C(O)=C1[N+](=O)[O-]`, the inhibition was inactive: 0.5%.

Regarding `CCCCCCCCCCCCCCCC1C[N+](C)(C)CCOP(C)(=O)O1` (centres undefined), the inhibition was inactive: -1.3%.

For the compound `CP(=O)(Nc1ccc(Cl)cc1Cl)Oc1ccccc1` (centres undefined), the inhibition is inactive: -0.3%.

Take `CP(=O)(OCCOc1ccccc1)OCCOc1ccccc1`: the inhibition is inactive: -2.3%.

With `CN(C)CCOC(=O)C(O)(c1ccccc1)C1CCCC1` (centres undefined), the inhibition is inactive: -1.1%.

Consider `COc1ccc(OP(C)(=O)Nc2ccccn2)cc1` (centres undefined), for which the inhibition is inactive: 0%.

Consider `COc1ccccc1OP(C)(=O)Nc1ccc(Br)cc1` (centres undefined), for which the inhibition is inactive: 0.6%.

Regarding `CCc1ccc(OP(C)(=O)O)cc1`, the inhibition was inactive: -1.3%.

On to `COc1ccccc1OP(C)(=O)Nc1ccc(C)cc1C` (centres undefined), for which the inhibition is inactive: -0.2%.

For the compound `CP(=O)(Nc1ccccn1)Oc1ccccc1` (centres undefined), the inhibition is inactive: -0.7%.

`Cc1c(NP(C)(=O)Oc2ccc(C(C)C)cc2)c(=O)n(-c2ccccc2)n1C` (centres undefined): the inhibition is inactive: 0.8%.

Regarding `O=[N+]([O-])c1cc([N+](=O)[O-])c(Nc2ccccn2)c([N+](=O)[O-])c1`, the inhibition was inactive: 0%.

In the case of `CCc1ccc(OP(C)(=O)Nc2cccnc2)cc1` (centres undefined), the inhibition was inactive: 0.9%.

In the case of `CP(=O)(Oc1ccccc1)N1CCOC1=O` (centres undefined), the inhibition is inactive: -0.7%.

Regarding `O=C(OCCCN1CCCC1)C(O)(c1ccccc1)C1CCCCC1` (centres undefined), the inhibition is inactive: -1.4%.

With `COc1ccccc1OP(C)(=O)Nc1c(C)n(C)n(-c2ccccc2)c1=O` (centres undefined), the inhibition was inactive: -2.4%.

In the case of `COc1ccc(OP(C)(=O)Nc2ccc(Br)cc2)cc1` (centres undefined), the inhibition was inactive: 18.8%.

Consider `CCN(CC)CC(O)COC(=O)C(O)(c1ccccc1)C1CCCCC1` (centres undefined), for which the inhibition was inactive: -1.7%.

On to `CN(C)C(=O)c1c([N+](=O)[O-])cc([N+](=O)[O-])cc1[N+](=O)[O-]`, for which the inhibition was inactive: 0.7%.

As to `CP(=O)(Nc1ccc(Cl)cc1)Oc1ccc(F)cc1` (centres undefined), the inhibition was inactive: -1.8%.

With `COc1ccccc1OP(C)(=O)Nc1ccccc1Br` (centres undefined), the inhibition was inactive: 2.2%.

With `CC(C)(C)c1ccc(OP(C)(=O)O)cc1`, the inhibition was inactive: 0%.

In the case of `CP(=O)(OC12CC3CC(CC(C3)C1)C2)OC12CC3CC(CC(C3)C1)C2`, the inhibition was inactive: -0.4%.

`CCOC(=O)c1ccc(NP(C)(=O)Oc2ccc(Cl)cc2)cc1` (centres undefined): the inhibition was inactive: 1.8%.

With `COc1ccccc1OP(C)(=O)Nc1ccccc1` (centres undefined), the inhibition was inactive: -0.2%.

Regarding `CP(=O)(Nc1ccccc1Br)Oc1ccccc1` (centres undefined), the inhibition is inactive: 10.2%.

As for `CP(=S)(Nn1cnnc1)Oc1ccccc1` (centres undefined), the inhibition is inactive: -2%.

Turning to `Cc1cc(C)cc(OP(C)(=O)Nc2ccc(SC(F)(F)F)cc2)c1` (centres undefined), the inhibition is inactive: -6.1%.

Turning to `CP(=O)(NC(=O)Nc1ccccc1)Oc1ccccc1` (centres undefined), the inhibition was inactive: -0.8%.

`CCc1ccc(OP(C)(=O)N2CCN(c3ccc([N+](=O)[O-])cc3)CC2)cc1` (centres undefined): the inhibition is inactive: 14.5%.

Turning to `CP(=O)(Oc1ccccc1)OC(c1ccccc1)C(F)(F)F` (centres undefined), the inhibition is inactive: -1.9%.

Take `Cc1cccc(C)c1OP(C)(=O)Nc1ccc(SC(F)(F)F)cc1` (centres undefined): the inhibition is inactive: -2.2%.

As to `Cc1ccc(Nc2c([N+](=O)[O-])cc([N+](=O)[O-])cc2[N+](=O)[O-])cc1`, the inhibition is inactive: 18.7%.

On to `CP(=O)(Nc1ccc(SC(F)(F)F)cc1)Oc1ccc(Cl)cc1` (centres undefined), for which the inhibition was inactive: 17.9%.

On to `CP(=O)(Nc1ccccn1)Oc1ccc(Cl)cc1` (centres undefined), for which the inhibition was inactive: -0.5%.

Consider `CCOP(C)(=S)SCC(=O)NC(C)C(=O)O` (centres undefined), for which the inhibition was inactive: -0.2%.

`CCOC(=O)c1ccc(NP(C)(=O)Oc2ccc(OC)cc2)cc1` (centres undefined): the inhibition was inactive: 0.3%.

As for `O=[N+]([O-])c1cc([N+](=O)[O-])c(O)c([N+](=O)[O-])c1.c1ccc(Oc2ccncc2)cc1`, the inhibition was inactive: 0.3%.

In the case of `CCN(CC)CCCOC(=O)C(O)(c1ccccc1)c1ccccc1`, the inhibition is inactive: 0.6%.

Consider `COc1ccccc1-c1ccccn1.O=[N+]([O-])c1cc([N+](=O)[O-])c(O)c([N+](=O)[O-])c1`, for which the inhibition was inactive: 1%.

Regarding `Cc1cccc(C)c1OP(C)(N)=O` (centres undefined), the inhibition is inactive: -0.8%.

On to `CC(C)(C)c1ccc(OP(C)(=O)Nc2ccc(SC(F)(F)F)cc2)cc1` (centres undefined), for which the inhibition is inactive: 13.2%.

For the compound `O=[N+]([O-])c1ccc2c(c1)C=Nc1ccccc1O2`, the inhibition was inactive: -1%.

As to `O=[N+]([O-])c1cc([N+](=O)[O-])c(Nc2cccnc2)c([N+](=O)[O-])c1`, the inhibition was active: 102%.

For `COc1ccc(OP(C)(=O)Nc2cccc(F)c2)cc1` (centres undefined), the inhibition is inactive: -1.6%.

Take `COc1ccccc1OP(C)(=O)Nc1cc(Cl)ccc1C` (centres undefined): the inhibition was inactive: 0.1%.

As to `Cc1cc(C)cc(OP(C)(N)=O)c1` (centres undefined), the inhibition is inactive: -1.1%.

On to `CCOC(=O)c1ccc(NP(C)(=O)Oc2ccccc2)cc1` (centres undefined), for which the inhibition is inactive: -0.5%.

As for `Cc1ccc(NP(C)(=O)Oc2ccccc2)c(C)c1` (centres undefined), the inhibition was inactive: -2.8%.

Consider `COc1ccccc1OP(C)(=O)Nc1ccc(C)cc1` (centres undefined), for which the inhibition was inactive: 16.4%.

Take `O=C(O)c1cccc(Nc2c([N+](=O)[O-])cc([N+](=O)[O-])cc2[N+](=O)[O-])c1`: the inhibition was inactive: 0.7%.

`CC1=NCCc2c1[nH]c1ccccc21.O=[N+]([O-])c1cc([N+](=O)[O-])c(O)c([N+](=O)[O-])c1`: the inhibition is inactive: 2.6%.

In the case of `Cc1cc(C)cc(OP(C)(=O)Nc2ccc(C)cc2C)c1` (centres undefined), the inhibition is inactive: 0.6%.

Turning to `CCOC(=O)c1ccc(NP(C)(=O)Oc2cc(C)cc(C)c2)cc1` (centres undefined), the inhibition was inactive: -3.3%.

As for `COc1ccccc1OP(C)(=O)Nc1cccc(Br)c1` (centres undefined), the inhibition was inactive: 1.2%.

As to `Cc1cc(C)cc(OP(C)(=O)Nc2ccccn2)c1` (centres undefined), the inhibition was inactive: -1.5%.

Consider `CP(=O)(Nc1cccc(Br)c1)Oc1ccccc1` (centres undefined), for which the inhibition was inactive: -0.3%.

As to `Cc1ccc(C)c(NP(C)(=O)Oc2ccccc2)c1` (centres undefined), the inhibition was inactive: -0.2%.

As to `CN(Cc1cccnc1)C(=O)COc1ccc(Cl)c(Cl)c1.O=[N+]([O-])c1cc([N+](=O)[O-])c(O)c([N+](=O)[O-])c1`, the inhibition is inactive: -1.1%.

As for `O=[N+]([O-])c1cc([N+](=O)[O-])c(-n2nnc3ccccc32)c([N+](=O)[O-])c1`, the inhibition is inactive: -1.8%.

`Cc1nc2ccc3ccccc3c2s1.O=[N+]([O-])c1cc([N+](=O)[O-])c(O)c([N+](=O)[O-])c1`: the inhibition was inactive: -0.6%.

For `O=[N+]([O-])c1cc([N+](=O)[O-])c(-c2cnn(-c3ccccc3)c2)c([N+](=O)[O-])c1`, the inhibition is inactive: 7.1%.

For `CCOC(=O)C(CC)C1=NC(C)(C)Cc2ccccc21.O=[N+]([O-])c1cc([N+](=O)[O-])c(O)c([N+](=O)[O-])c1` (centres undefined), the inhibition was inactive: 1.9%.

As for `CC1=C2N=C(C=C3N=C(C(C)=C4[N-][C@@](C)([C@@H]5N=C1[C@](C)(CCC(=O)NC[C@@H](C)OP(=O)([O-])O[C@H]1[C@@H](O)[C@@H](n6cnc7cc(C)c(C)cc76)O[C@@H]1CO)[C@H]5CC(N)=O)[C@@](C)(CC(N)=O)[C@@H]4CCC(N)=O)[C@@](C)(CC(N)=O)[C@@H]3CCC(N)=O)C(C)(C)[C@@H]2CCC(N)=O.[C-]#N.[Co+3]`, the inhibition is inactive: 4.5%.

Take `O=[N+]([O-])c1cc([N+](=O)[O-])c(Nc2nnnn2CCO)c([N+](=O)[O-])c1`: the inhibition is inactive: 1.8%.

On to `CCCOc1ccc(NP(C)(=O)Oc2ccc(Cl)cc2)cc1` (centres undefined), for which the inhibition is inactive: -0.6%.

Regarding `CP(=O)(Nc1ccc(SC(F)(F)F)cc1)Oc1ccccc1` (centres undefined), the inhibition was inactive: 3.5%.

In the case of `COc1ccc(-c2ccccn2)cc1.O=[N+]([O-])c1cc([N+](=O)[O-])c(O)c([N+](=O)[O-])c1`, the inhibition was inactive: -0.3%.

For the compound `COc1ccccc1OP(C)(=O)Nc1c(C)cccc1C` (centres undefined), the inhibition is inactive: -0.6%.

For the compound `CN1CCCCC1COC(=O)C1(O)c2ccccc2CCc2ccccc21` (centres undefined), the inhibition is inactive: -0.2%.

The values above are taken from PubChem BioAssay AID602449 (Sanford-Burnham Center for Chemical Genomics, 2012).
